What was measured:
[1] = target: T1, human recombinant A3 adenosine receptor (Homo sapiens, UniProt P0DMS8); assay: Human cloned A3 adenosine receptor binding assay, [125I]AB-MECA, HEK-293 membranes; settings: for rA1/hA3 / rA2A/hA3: selectivity ratio of Ki values
[2] = target: T1, human recombinant A3 adenosine receptor; assay: Human cloned A3 receptor binding, [3H] MRE3008-F20, CHO cells; settings: for hA1/hA3 / hA2A/hA3 / hA2B/hA3: selectivity ratio of Ki values
[3] = target: T2, adenosine A3 receptors in Jurkat cell membranes (Homo sapiens, UniProt P0DMS8); assay: Saturation binding of radioligand of Compound 108, Jurkat cell membranes; settings: FIG. 4, n=3
T2 construct: endogenous in cells; host or cells: Jurkat (human T-cell leukaemia)

By UniProt entry, the sequences of proteins in these tests, tags left out.
UniProt P0DMS8, whole entry: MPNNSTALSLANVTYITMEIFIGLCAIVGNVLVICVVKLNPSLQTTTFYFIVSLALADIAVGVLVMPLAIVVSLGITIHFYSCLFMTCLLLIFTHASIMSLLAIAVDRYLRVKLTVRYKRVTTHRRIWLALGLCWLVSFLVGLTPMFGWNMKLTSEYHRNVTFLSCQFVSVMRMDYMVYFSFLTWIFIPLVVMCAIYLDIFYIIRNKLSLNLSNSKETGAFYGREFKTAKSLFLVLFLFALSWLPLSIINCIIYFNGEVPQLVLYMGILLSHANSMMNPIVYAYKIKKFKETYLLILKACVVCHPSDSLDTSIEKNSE

[4] = target: T3, adenosine A3 receptors in HL60 membranes (Homo sapiens, UniProt P0DMS8); assay: Saturation binding of radioligand of Compound 108, HL60 membranes; settings: FIG. 5, n=3
T3 construct: endogenous in cells; host or cells: HL60 (promyelocytic human leukaemia)

[5] = target: A3 receptor in Jurkat cell membranes (Homo sapiens, UniProt P0DMS8); assay: biochemical
[6] = target: human A3 receptors expressed in HEK 293 cells (Homo sapiens, UniProt P0DMS8); assay: biochemical

CCCCn1cc2c(nc(NC(=O)Nc3ccc(OC)cc3)n3nc(-c4ccco4)nc23)n1 [Compound 49, 5-[[(4-Methoxyphenyl)amino]carbonyl]amino-8-butyl-2-(2-furyl)-pyrazolo[4,3-e]1,2,4-triazolo[1,5-c]pyrimidine]
rA1/hA3 [1]: 6,993
rA2A/hA3 [1]: 2,163

CCN(CC)c1ccc(NC(=O)Nc2nc3nn(C)cc3c3nc(-c4ccco4)nn23)cc1.Cl [Compound 102, N-[8-methyl-2-(2-furyl)-8H-pyrazolo[4,3-e][1,2,4]triazolo[1,5-c]pyrimidin-5-yl]-N′-[4-(diethylamino)phenyl]urea hydrochloride]
Ki [2]: 19 nM
hA1/hA3 [2]: 35.8
hA2A/hA3 [2]: 31.2
hA2B/hA3 [2]: 14.5

CN(C)c1ccc(NC(=O)Nc2nc3nn(C)cc3c3nc(-c4ccco4)nn23)cc1.Cl [Compound 103, N-[8-methyl-2-(2-furyl)-8H-pyrazolo[4,3-e][1,2,4]triazolo[1,5-c]pyrimidin-5-yl]-N′-[4-(dimethylamino)phenyl]urea hydrochloride]
hA1/hA3 [2]: 667
hA2A/hA3 [2]: 667
hA2B/hA3 [2]: 40.6

CCCn1cc2c(nc(NC(=O)Nc3ccc(OC)cc3)n3nc(-c4ccco4)nc23)n1 [Compound 108, 5-[[(4-methoxyphenyl)amino]carbonyl]amino-8-propyl-2-(2-furyl)-pyrazolo[4, 3]-e-1 ,2,4-triazolo[1,5-c]pyrimidine]
hA1/hA3 [2]: 4150
hA2A/hA3 [2]: 486

CCN(CC)c1ccc(NC(=O)Nc2nc3nn(C)cc3c3nc(-c4ccco4)nn23)cc1 [Compound 101, N-[4-(diethylamino)phenyl]-N′-[2-(2-furyl)-8-methyl-8H -pyrazolo[4,3-e][1,2,4]triazolo[1,5-c]pyrimidin-5-yl]urea]
hA1/hA3 [2]: 21.5
hA2A/hA3 [2]: 19.4
hA2B/hA3 [2]: 13.0

[3H]CC([3H])Cn1cc2c(nc(NC(=O)Nc3ccc(OC)cc3)n3nc(-c4ccco4)nc23)n1 (stereo not drawn) [radioligand of Compound 108, 5-[[(4-methoxyphenyl)amino]carbonyl]amino-8-(1,2-ditritiopropyl)-2-(2-furyl)-pyrazolo[4,3-e]1,2,4-triazolo[1,5-c]pyrimidine]
Kd [3]: 1.9 ± 0.2 nM
Kd [4]: 1.2 ± 0.1 nM

CNC(=O)[C@H]1O[C@@H](n2cnc3c(NCc4ccc(N)c([125I])c4)ncnc32)[C@H](O)[C@@H]1O [[^125I]AB-MECA, [^125I]N^6-(4-amino-3-iodobenzyl)adenosine-5′N-methyluronamide]
Kd [5]: 4 nM
Kd [6]: 0.9 ± 0.01 nM

CCCn1cc2c(nc(NC(=O)Nc3ccc(OC)cc3)n3nc(-c4ccco4)nc23)n1 [Compound 47, 5-[[(4-Methoxyphenyl)amino]carbonyl]amino-8-propyl-2-(2-furyl)-pyrazolo[4,3-e]1,2,4-triazolo[1,5-c]pyrimidine]
affinity and selectivity for the A3 receptor subtype (in words) ([1]; discussion of Table 1): high affinity and selectivity
rA1/hA3 [1]: >34,482
rA2A/hA3 [1]: 6,872

Source: patent publication US7271171B2, “Adenosine A3 receptor modulators” (King Pharmaceuticals Research and Development, Inc., priority 1998, dated 2007)
